According to paper PMC11537224 (ACS Infectious Diseases, 2024):
Where two headings read alike, the source gives them in different places.

Sequences of proteins named here, by UniProt entry; tags and fusion partners are left off. A change or cut given only in a name is not applied to a line headed by its entry.
UniProt Q27783: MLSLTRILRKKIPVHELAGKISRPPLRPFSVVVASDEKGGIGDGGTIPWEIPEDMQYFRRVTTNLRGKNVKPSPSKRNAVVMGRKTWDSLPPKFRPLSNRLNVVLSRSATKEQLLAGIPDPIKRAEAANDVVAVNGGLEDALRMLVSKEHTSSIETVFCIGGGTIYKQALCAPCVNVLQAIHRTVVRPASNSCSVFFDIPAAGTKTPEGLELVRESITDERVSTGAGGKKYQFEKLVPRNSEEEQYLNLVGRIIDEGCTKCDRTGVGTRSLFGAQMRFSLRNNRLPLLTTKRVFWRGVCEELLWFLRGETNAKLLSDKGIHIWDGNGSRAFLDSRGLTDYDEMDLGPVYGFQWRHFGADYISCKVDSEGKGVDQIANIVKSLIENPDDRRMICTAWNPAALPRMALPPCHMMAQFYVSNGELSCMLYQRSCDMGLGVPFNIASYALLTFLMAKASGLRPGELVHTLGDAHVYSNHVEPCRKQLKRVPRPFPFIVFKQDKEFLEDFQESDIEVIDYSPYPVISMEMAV

Assays:
[1] = biological target: TbTS (Trypanosoma brucei brucei, UniProt Q27783); settings: ratio of Ki hTS vs TbTS
[2] = biological target: T1, TbDHFR (Trypanosoma brucei brucei, UniProt Q27783); settings: for selectivity KiTbPTR1/KiTbDHFR: ratio of Ki TbPTR1 vs TbDHFR; for species selectivity KihDHFR/KiTbDHFR: ratio of Ki hDHFR vs TbDHFR
[3] = in vitro; settings: human, THP-1-derived macrophages (PMA-differentiated)
[4] = system: T. brucei bloodstream forms; assay: Activity toward T. brucei bloodstream forms; settings: for SI CC50/EC50 folate deficiency: THP-1 CC50 / T. brucei EC50, folate deficiency medium
[5] = biological target: T1, TbDHFR; settings: read-out: TbDHFR Ki; cited from earlier work
[6] = biological target: T2, TbPTR1 (Trypanosoma brucei brucei, UniProt O76290); assay: TbPTR1 inhibition assay
T2 sequence (O76290 1-268): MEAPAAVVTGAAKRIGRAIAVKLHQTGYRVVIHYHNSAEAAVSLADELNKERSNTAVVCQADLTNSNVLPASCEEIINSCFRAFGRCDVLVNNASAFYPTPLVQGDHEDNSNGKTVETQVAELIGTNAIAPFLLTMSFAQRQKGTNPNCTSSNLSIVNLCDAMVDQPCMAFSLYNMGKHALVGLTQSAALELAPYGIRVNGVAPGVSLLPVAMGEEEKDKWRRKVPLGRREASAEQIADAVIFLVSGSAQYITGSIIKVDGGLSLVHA

[7] = biological target: T1, TbDHFR; assay: biochemical

Structure (SMILES) | species selectivity KihTS/KiTbTS [1] | selectivity KiTbPTR1/KiTbDHFR [2] | species selectivity KihDHFR/KiTbDHFR [2] | CC50 at 72 h [3] | SI CC50/EC50 ([4]; THP-1 CC50 / T. brucei EC50, complete medium) | SI CC50/EC50 folate deficiency [4] | Ki [5] | Ki [6] | Ki [7]
N=C(N)Nc1nc2ccccc2[nH]1 [2a, 2-Guanidinobenzimidazole] | >21 | 459 | 76 | > 100 µM |  |  |  |  | 
N=C(N)Nc1nc2cc(Cl)c(Cl)cc2[nH]1 [2c, 5,6-Dichloro-2-guanidinobenzimidazole] | >9.9 | 4.9 | 2.3 | 95.3 µM | 12.2 | 14.6 |  |  | 
N=C(N)Nc1nc2cc(Cl)cc(Cl)c2[nH]1 [2d, 4,6-Dichloro-2-guanidinobenzimidazole] | >25 | 44 | 39 | > 100 µM |  | 16.8 |  |  | 
Cc1cc2nc(NC(=N)N)[nH]c2cc1C [2g, 5,6-Dimethyl-2-guanidinobenzimidazole] | >27 | 6000 | 394 | > 100 µM |  | 7.2 |  |  | 
CC1(C)N=C(N)N=C(N)N1c1ccc(Cl)cc1 [Cyc, cycloguanil, reference compound] |  |  |  | 221 µM |  |  | 0.256 µM |  | 
CCc1nc(N)nc(N)c1-c1ccc(Cl)cc1 [Pyr, pyrimethamine, reference compound] |  |  |  | 105 µM |  |  |  | 0.016 µM | 0.038 µM
